Results published in patent publication US20240208992A1, “MACROCYCLES AS CFTR MODULATORS” (Idorsia Pharmaceuticals Ltd, priority 2021, published 2024).

Amino acid sequences for entries named in this document (tags omitted). Chains listed by the source or under a name are the forms on record and can include a tag or linker.
UniProt P13569, with tags, fused parts or gaps DEL508-508: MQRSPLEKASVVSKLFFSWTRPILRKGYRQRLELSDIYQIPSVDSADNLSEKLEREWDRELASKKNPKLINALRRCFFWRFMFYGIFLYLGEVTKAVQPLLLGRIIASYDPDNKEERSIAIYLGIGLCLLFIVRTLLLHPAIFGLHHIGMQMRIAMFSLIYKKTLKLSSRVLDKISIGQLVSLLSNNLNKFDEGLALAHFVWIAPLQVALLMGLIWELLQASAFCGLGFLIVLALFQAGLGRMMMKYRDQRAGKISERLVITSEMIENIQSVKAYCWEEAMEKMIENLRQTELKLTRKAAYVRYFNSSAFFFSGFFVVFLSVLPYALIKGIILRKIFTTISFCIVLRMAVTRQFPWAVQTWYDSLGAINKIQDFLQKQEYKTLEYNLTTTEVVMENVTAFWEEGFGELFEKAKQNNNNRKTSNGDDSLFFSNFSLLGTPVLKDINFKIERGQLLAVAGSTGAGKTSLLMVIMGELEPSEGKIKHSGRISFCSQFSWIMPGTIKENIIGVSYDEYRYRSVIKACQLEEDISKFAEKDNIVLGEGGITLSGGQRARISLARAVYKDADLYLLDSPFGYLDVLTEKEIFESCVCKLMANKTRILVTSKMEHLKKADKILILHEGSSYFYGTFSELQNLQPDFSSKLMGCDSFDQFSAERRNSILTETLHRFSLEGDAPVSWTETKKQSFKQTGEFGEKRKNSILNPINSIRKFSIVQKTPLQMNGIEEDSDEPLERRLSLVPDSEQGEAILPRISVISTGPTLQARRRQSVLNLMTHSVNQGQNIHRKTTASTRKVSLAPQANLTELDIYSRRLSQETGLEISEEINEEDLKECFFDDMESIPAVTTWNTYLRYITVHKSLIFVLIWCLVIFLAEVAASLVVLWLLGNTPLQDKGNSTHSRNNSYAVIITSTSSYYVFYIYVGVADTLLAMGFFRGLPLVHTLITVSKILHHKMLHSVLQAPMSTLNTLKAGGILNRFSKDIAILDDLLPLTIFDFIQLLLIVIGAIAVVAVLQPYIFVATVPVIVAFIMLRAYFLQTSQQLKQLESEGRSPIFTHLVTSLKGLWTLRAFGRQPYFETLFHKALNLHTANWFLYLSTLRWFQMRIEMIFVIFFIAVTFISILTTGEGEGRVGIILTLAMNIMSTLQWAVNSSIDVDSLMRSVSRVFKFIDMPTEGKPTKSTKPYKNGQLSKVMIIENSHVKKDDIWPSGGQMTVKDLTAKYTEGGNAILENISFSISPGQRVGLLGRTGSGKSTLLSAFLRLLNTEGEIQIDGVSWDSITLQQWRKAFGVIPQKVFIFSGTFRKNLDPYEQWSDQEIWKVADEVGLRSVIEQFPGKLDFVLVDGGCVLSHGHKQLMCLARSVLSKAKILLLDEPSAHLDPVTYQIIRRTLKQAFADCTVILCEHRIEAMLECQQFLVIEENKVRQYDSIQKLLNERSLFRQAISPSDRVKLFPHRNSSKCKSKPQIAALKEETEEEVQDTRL

Molecular target: human F508del-CFTR (Homo sapiens, UniProt P13569, DEL508-508)
Experiment: F508del-CFTR cell surface expression (corrector activity), DiscoveRx ß-galactosidase complementation chemiluminescence assay in recombinant U2OS cell line;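 also: U2OS cells co-expressing ProLink-tagged F508del-CFTR and a membrane-anchored enzyme acceptor, where more surface CFTR restores β-galactosidase activity measured by chemiluminescence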
Conditions: for EC50: F508del-CFTR cell surface expression
[1] = U2OS cells, 16h compound incubation, geomean values
[2] = in relation to Emax of corrector lumacaftor (=100%), arithmetic mean values

Compound | EC50 [1] [nM] | Emax [2] [%] | further results
CC(C)C[C@H]1C(=O)N(C)[C@H](Cc2nc(-c3ccc(F)cn3)no2)C(=O)N[C@H](Cc2ccccc2)COc2ccc3ncc(F)cc3c2C(=O)N[C@H](C(=O)NC[C@H](O)c2nc(C3CC3)no2)CC(=O)N1C | – | – | EC50 (U2OS cells, 16h compound incubation, geomean of several measurements): 1490 nM; Emax (in relation to the Emax of the corrector lumacaftor (=100%), U2OS cells, 16h compound incubation, arithmetic mean): 402%
COc1cc2c(cn1)OC[C@@H](Cc1ccccc1)NC(=O)C1CCCCN1C(=O)[C@H](CC(C)C)N(C)C(=O)C[C@@H](C(=O)NCCc1nc(C3CC3)no1)NC2=O (some centres unmarked) | 518 | 140 | –
CC(C)CC1C(=O)N(CC2COc3ccccc3C2)CC(=O)NC(Cc2ccccc2)COc2ccc3ccccc3c2C(=O)NC(C(=O)NCCc2ccc3c(c2)OCO3)CC(=O)N1C (centres unmarked) | 187 | 211 | –
COc1cccc2c1C(=O)N[C@H](C(=O)NCCc1ccc(Br)cc1)CC(=O)N(C)[C@@H](CC(C)C)C(=O)N1CCOC[C@@H]1C(=O)N[C@H](Cc1ccccc1)CO2 | – | – | EC50 (U2OS cell line, 16h compound incubation, geomean values): 428 nM; Emax (in relation to the Emax of the corrector lumacaftor (=100%), U2OS cell line, 16h compound incubation, arithmetic mean values): 136%
